pKi: −log10 of the molar value.

By UniProt entry, the sequences of proteins in these tests, tags left out. Residues count along the entry.
UniProt P08684, 2-503 limits assumed: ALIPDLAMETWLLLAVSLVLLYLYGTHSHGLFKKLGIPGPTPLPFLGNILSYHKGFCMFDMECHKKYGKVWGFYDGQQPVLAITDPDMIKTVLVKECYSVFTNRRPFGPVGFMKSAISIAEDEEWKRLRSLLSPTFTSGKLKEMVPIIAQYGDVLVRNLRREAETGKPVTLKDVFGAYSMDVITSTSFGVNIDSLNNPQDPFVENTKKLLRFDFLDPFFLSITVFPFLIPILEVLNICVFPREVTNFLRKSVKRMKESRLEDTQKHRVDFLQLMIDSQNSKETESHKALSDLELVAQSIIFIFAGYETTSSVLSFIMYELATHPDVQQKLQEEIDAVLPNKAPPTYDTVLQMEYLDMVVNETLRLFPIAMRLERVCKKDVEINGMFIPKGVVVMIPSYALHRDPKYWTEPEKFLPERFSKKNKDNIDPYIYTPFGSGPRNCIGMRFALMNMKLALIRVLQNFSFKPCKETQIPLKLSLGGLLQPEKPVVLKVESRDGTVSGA

This series addresses CYP3A (Homo sapiens, UniProt P08684). In words: CYP3A time-dependent inhibition in human liver microsomes (midazolam probe). The conditions noted are these: for Predicted fold-change in AUC of CYP3A substrate: AUCinh/AUC from Ki and kinact, kdeg 0.0005 min^−1, [I] 0.17 μM; for CYP3A Time-Dependent Inhibition kinact / pKi: pooled human liver microsomes, midazolam probe substrate; for pKi: read-out: CYP3A Time-Dependent Inhibition Kl.

Take `CC[C@H]1OC(=O)[C@H](C)C(=O)[C@H](C)[C@@H](O[C@@H]2O[C@H](C)C[C@H](N(C)C)[C@H]2O)[C@](C)(OC)C[C@@H](C)C(=O)[C@H](C)[C@H]2N(C3CN(Cc4ccnc5cccnc45)C3)C(=O)O[C@]12C`: the “Predicted fold-change in AUC of CYP3A substrate” value was 5.4, the “CYP3A Time-Dependent Inhibition kinact” value is 0.028 min⁻¹ and the pKi is 5.70.
For the compound `CC[C@H]1OC(=O)[C@H](C)C(=O)[C@H](C)[C@@H](O[C@@H]2O[C@H](C)C[C@H](N(C)C)[C@H]2O)[C@](C)(OC)C[C@@H](C)C(=O)[C@H](C)[C@H]2N(C3CN(Cc4c(Br)cnc5cccnc45)C3)C(=O)O[C@]12C`, the “Predicted fold-change in AUC of CYP3A substrate” value is given as 4.2, the “CYP3A Time-Dependent Inhibition kinact” value is 0.029 min⁻¹ and the pKi is 5.55.

Values taken from patent US20080293646A1, “MACROLIDES” (Pfizer Inc, priority 2007, published 2008).
